Results reported in US20140221346A1, “THERAPEUTIC COMPOUNDS” (Gilead Sciences, Inc., priority 2013, published 2014).

Test system: HIV-IIIb
Test: Test A: Antiviral Assay in MT4 Cells
Format: cell-based, HIV-1
Details: Human immunodeficiency virus 1, IIIB, MT4, 120 h, read-out: % inhibition at 3 μM
Description: For the antiviral assay, 40 μL of 1× test concentration of 3-fold serially diluted compound in culture medium with 10% FBS was added to each well of a 384-well plate (10 concentrations) in quadruplicate. MT-4 cells were next mixed with HIV-IIIb at an m.o.i of 0.003 for 1 hour, after which time 35 μL of virus/cell mixture (2000 cells) was immediately added to each well containing 40 μL of diluted compound. The plates were then incubated at 37° C. for 5 days. After 5 days of incubation, 25 μl of 2× concentrated CellTiter-Glo™ Reagent (catalog #G7571, Promega Biosciences, Inc., Madison, Wis.) was added to each well containing MT-4 cells. Cell lysis was carried out by incubating at room temperature for 10 min and then chemiluminescence was read.

**Q.** Which inhibition at 3 µM does the source give for `CC(=O)Oc1ccc(-c2ccc(F)c(C(N)=O)c2)c([C@H](Cc2cc(F)cc(F)c2)NC(=O)Cn2nc(C(F)F)c3c2C(F)(F)CCC3(F)F)n1` [Compound 20B, (S)-5-(3-carbamoyl-4-fluorophenyl)-6-(1-(2-(3-(difluoromethyl)-4,4,7,7-tetrafluoro-4,5,6,7-tetrahydro-1H-indazol-1-yl)acetamido)-2-(3,5-difluorophenyl)ethyl)pyridin-2-yl acetate] here?
**A.** 1%
